Data: paper PMC5572205 (ACS chemical neuroscience, 2015)

Sequences of proteins named here, by UniProt entry; tags and fusion partners are left off. A change or cut given only in a name is not applied to a line headed by its entry.
UniProt P41146: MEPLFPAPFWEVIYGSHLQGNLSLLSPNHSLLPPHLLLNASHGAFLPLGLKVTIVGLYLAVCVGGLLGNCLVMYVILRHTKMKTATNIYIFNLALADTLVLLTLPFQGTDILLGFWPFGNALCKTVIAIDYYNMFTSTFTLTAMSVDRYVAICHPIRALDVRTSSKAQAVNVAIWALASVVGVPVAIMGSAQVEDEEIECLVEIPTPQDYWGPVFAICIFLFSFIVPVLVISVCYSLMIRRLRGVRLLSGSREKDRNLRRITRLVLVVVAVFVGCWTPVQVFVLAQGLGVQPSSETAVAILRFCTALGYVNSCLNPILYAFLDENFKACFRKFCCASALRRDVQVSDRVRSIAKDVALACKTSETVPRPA

What was measured:
human NOP receptor = human NOP receptor (Homo sapiens, UniProt P41146); details: mean ± SEM, three to four experiments in triplicate
[1] = target: NOP receptor (arrestin3 recruitment) (Homo sapiens, UniProt P41146); details: BRET arrestin3 recruitment; mean ± SEM

nociceptin/orphanin FQ [N/OFQ]
cAMP mobilization % of N/OFQ EMAX (human NOP receptor): 100 ± 4% | arrestin3 % of N/OFQ EMAX [1]: 100 ± 12%
